Results as given in article PMC13657631, “Product-stabilized filamentation by human glutamine synthetase allosterically tunes metabolic activity” (2026).

The chains behind the UniProt entries cited, without tags or fusion partners. Residues count along the entry.
UniProt P15104, 2-373 limits assumed: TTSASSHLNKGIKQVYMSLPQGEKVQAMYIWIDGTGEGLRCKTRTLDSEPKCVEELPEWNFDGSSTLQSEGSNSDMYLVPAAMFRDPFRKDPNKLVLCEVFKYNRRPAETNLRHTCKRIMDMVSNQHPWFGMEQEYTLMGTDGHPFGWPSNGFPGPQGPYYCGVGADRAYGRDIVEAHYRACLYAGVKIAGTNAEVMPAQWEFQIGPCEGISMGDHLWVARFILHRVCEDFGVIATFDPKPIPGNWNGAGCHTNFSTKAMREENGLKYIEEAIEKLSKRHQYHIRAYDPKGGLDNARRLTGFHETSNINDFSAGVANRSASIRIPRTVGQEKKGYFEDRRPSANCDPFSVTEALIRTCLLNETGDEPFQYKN
UniProt P15104, 2-373 R298A limits assumed: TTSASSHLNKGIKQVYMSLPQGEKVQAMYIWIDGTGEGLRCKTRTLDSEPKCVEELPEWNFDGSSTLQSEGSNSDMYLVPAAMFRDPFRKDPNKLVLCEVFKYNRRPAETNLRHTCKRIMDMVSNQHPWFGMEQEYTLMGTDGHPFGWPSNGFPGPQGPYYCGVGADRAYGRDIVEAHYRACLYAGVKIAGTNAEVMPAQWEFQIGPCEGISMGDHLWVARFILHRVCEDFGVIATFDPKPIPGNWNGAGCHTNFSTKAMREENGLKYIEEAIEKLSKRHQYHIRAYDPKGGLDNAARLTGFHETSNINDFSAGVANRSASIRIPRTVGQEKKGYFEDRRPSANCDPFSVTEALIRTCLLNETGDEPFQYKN
UniProt P15104, 2-373 D239A limits assumed: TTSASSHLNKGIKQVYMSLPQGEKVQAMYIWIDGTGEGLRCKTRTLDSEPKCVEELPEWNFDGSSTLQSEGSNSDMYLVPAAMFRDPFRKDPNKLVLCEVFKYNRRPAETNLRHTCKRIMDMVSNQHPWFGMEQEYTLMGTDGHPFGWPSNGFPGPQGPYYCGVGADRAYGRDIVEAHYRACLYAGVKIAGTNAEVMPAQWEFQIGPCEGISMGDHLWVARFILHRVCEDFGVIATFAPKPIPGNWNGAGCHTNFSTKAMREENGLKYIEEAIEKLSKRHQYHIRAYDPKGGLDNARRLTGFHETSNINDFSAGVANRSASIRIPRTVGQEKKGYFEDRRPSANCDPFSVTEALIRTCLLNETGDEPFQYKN
UniProt P15104, 2-373 C53A limits assumed: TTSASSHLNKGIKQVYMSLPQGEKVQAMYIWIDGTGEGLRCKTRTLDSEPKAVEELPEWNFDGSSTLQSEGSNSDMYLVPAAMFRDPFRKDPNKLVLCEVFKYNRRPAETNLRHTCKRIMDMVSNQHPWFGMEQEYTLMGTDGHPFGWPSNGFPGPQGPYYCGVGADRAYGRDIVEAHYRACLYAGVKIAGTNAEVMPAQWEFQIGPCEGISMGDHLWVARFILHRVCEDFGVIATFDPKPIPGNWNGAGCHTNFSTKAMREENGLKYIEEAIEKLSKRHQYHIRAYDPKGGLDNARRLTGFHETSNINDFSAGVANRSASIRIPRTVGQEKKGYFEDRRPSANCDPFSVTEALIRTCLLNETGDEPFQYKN
UniProt P15104, 2-373 K52A limits assumed: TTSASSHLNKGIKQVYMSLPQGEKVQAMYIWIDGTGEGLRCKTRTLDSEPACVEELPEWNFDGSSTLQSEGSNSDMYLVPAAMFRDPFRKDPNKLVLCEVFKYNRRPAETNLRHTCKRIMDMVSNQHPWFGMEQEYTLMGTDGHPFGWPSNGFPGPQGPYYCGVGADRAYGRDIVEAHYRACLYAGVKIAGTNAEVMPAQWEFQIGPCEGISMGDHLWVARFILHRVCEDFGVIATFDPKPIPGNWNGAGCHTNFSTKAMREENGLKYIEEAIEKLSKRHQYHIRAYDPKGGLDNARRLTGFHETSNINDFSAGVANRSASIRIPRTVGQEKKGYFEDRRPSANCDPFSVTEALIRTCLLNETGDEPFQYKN
UniProt P15104, 2-373 E305A limits assumed: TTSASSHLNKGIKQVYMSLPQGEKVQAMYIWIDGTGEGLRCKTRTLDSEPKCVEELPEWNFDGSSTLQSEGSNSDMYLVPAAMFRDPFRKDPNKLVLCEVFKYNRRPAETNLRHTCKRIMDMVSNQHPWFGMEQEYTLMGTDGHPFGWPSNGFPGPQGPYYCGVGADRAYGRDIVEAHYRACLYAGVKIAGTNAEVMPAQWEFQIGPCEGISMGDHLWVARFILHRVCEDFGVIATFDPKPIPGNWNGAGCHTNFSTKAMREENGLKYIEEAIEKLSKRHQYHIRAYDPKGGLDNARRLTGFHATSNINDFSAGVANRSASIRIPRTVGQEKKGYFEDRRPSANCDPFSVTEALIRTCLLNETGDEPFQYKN
UniProt P15104, 2-373 H304A limits assumed: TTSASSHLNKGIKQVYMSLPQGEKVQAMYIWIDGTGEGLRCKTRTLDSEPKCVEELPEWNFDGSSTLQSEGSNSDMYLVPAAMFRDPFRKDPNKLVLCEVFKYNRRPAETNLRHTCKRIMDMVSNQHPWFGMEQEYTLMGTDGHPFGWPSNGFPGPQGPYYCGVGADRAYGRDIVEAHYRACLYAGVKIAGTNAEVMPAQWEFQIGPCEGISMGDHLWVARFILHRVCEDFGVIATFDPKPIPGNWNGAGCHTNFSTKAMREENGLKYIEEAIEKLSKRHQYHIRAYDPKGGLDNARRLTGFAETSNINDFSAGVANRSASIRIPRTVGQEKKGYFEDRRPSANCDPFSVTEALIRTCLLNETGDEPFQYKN
UniProt P15104, 2-373 I309A limits assumed: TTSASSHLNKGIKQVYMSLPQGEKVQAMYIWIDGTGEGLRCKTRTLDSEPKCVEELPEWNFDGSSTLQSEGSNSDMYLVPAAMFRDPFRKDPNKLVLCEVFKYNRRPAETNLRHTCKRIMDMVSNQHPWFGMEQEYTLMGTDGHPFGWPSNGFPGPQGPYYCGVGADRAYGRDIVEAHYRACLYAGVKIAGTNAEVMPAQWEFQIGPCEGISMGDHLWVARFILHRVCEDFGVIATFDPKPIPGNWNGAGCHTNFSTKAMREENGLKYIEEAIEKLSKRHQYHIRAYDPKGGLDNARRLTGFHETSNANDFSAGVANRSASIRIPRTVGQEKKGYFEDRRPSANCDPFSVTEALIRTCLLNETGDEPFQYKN

Experiments:
[1] = target: T1, scarless human glutamine synthetase (GS) (Homo sapiens, UniProt P15104, R298A, form not given); experiment: cryo-EM structure of R298A turnover decamer; settings: active site; ADP with Mg(II), turnover conditions
[2] = target: T2, scarless human glutamine synthetase (GS) (Homo sapiens, UniProt P15104); experiment: cryo-EM structure of turnover decamer; settings: active site; ADP with Mg(II), turnover conditions
[3] = target: T2, scarless human glutamine synthetase (GS); experiment: cryo-EM structure of turnover filament; settings: allosteric; filament interface site (K52, C53, E55), not the active site; formed as product under turnover
[4] = target: T1, scarless human glutamine synthetase (GS); experiment: NADH-coupled ATPase assay (pyruvate kinase / lactate dehydrogenase)
[5] = target: scarless human glutamine synthetase (GS) (Homo sapiens, UniProt P15104, H304A, form not given); experiment: as above; settings: read-out: KM, glutamate; saturating ATP and ammonium, 10 mM MgCl2, pH 7.5-7.6
His6-tagged GS = His6-tagged GS (Homo sapiens, UniProt P15104); experiment: as above; settings: saturating ATP and ammonium; tagged enzyme with decoupled ATP hydrolysis
[6] = target: T2, scarless human glutamine synthetase (GS); experiment: as above; settings: read-out: KM, glutamate; saturating ATP and ammonium, 10 mM MgCl2, pH 7.5-7.6
[7] = target: scarless human glutamine synthetase (GS) (Homo sapiens, UniProt P15104, I309A, form not given); experiment: as above; settings: read-out: KM, glutamate; saturating ATP and ammonium, 10 mM MgCl2, pH 7.5-7.6
[8] = target: scarless human glutamine synthetase (GS) (Homo sapiens, UniProt P15104, D239A, form not given); experiment: as above
[9] = target: scarless human glutamine synthetase (GS) (Homo sapiens, UniProt P15104, E305A, form not given); experiment: as above; settings: read-out: KM, ammonia; saturating glutamate and ATP, 10 mM MgCl2
[10] = target: scarless human glutamine synthetase (GS) (Homo sapiens, UniProt P15104, K52A, form not given); experiment: NADH-coupled ATPase assay, global progress-curve fit (KinTek Explorer); settings: read-out: KM, ammonia; no added glutamine; 0.1 mg/mL enzyme, saturating glutamate and ATP, room temperature
[11] = target: scarless human glutamine synthetase (GS) (Homo sapiens, UniProt P15104, C53A, form not given); experiment: as above; settings: read-out: KM, ammonia; no added glutamine; 0.1 mg/mL enzyme, saturating glutamate and ATP, room temperature
[12] = read-out: KM, glutamate, saturating ATP and ammonium, 10 mM MgCl2, pH 7.5-7.6
[13] = read-out: KM, ammonia, saturating glutamate and ATP, 10 mM MgCl2

Structure (SMILES): Nc1ncnc2c1ncn2[C@@H]1O[C@H](COP(=O)(O)OP(=O)(O)O)[C@@H](O)[C@H]1O
cryo-EM structure of R298A turnover decamer [1]: Active site ADP and Mg(II) density (sharpened) depiction | cryo-EM structure of turnover decamer [2]: Active site ADP and Mg(II) density (sharpened) depiction

Structure (SMILES): NC(=O)CC[C@H](N)C(=O)O
cryo-EM structure of turnover filament [3]: glutamine modeled which forms hydrogen bonds with K52, C53, and E55

Km [4, 12]: 38000 µM | Km [5]: 11000 µM | Km [6]: 1600 µM | Km [7]: 21000 µM | Km [8, 12]: 47000 µM
Structure (SMILES): N[C@@H](CCC(=O)O)C(=O)O
KM,glutamate (His6-tagged GS): KMglutamate is noted to be threefold higher for His6-tagged GS

Km [4, 13]: 113 µM | Km [9]: 559 µM | Km [8, 13]: 114 µM | Km [10]: 110 µM | Km [11]: 88 µM
Structure (SMILES): N

Like-named read-outs stand apart in the source and are kept apart here. Each block holds one molecule with its values, some of them ahead of it.
